In US20240299352A1, “COMBINATION THERAPIES WITH SETD2 INHIBITORS” (Epizyme, Inc., priority 2021, published 2024):

How the values were obtained:
[1] = tested on: diffuse large B-cell lymphoma (DLBCL) cell lines; assay: Pre-treatment model combination study with Cpd. No. 15 (7 days pre-treatment, then combination; Table G), CellTiter-Glo viability, Loewe Volume; conditions: 7 days pre-treatment with Cpd. No. 15, then combination, cell line OCILY7 (Cat. No. ACC 688)
SUDHL5 = assay: Co-treatment combination study with Cpd. No. 15, CellTiter-Glo viability, Loewe Volume; format: cell-based; conditions: in combination with Cpd. No. 15, seven days, DLBCL cell line SUDHL5
SUDHL2 = assay: as above; format: cell-based; conditions: in combination with Cpd. No. 15, seven days, DLBCL cell line SUDHL2
RL = assay: as above; format: cell-based; conditions: in combination with Cpd. No. 15; 6-Day Cotreatment; DLBCL cell line RL
KARPAS422 = assay: as above; format: cell-based; conditions: in combination with Cpd. No. 15, seven days, DLBCL cell line KARPAS422
MINO = assay: as above; format: cell-based; conditions: in combination with Cpd. No. 15, seven days, mantle cell lymphoma cell line MINO (CRL-3000)
Z138 = assay: as above; format: cell-based; conditions: in combination with Cpd. No. 15, seven days, mantle cell lymphoma cell line Z138 (CRL-3001)
[2] = tested on: diffuse large B-cell lymphoma (DLBCL) cell lines; assay: Co-treatment combination study with Cpd. No. 15, further cell lines (Table F), CellTiter-Glo viability, Loewe Volume; conditions: co-treatment with Cpd. No. 15, cell line TMD8 (Cat. No. M-097)
WILL2 = assay: Co-treatment combination study with Cpd. No. 15, CellTiter-Glo viability, Loewe Volume; format: cell-based; conditions: in combination with Cpd. No. 15, seven days, DLBCL cell line WILL2
MAVER1 = assay: as above; format: cell-based; conditions: in combination with Cpd. No. 15, seven days, mantle cell lymphoma cell line MAVER1 (CRL-3008)
DOHH2 = assay: as above; format: cell-based; conditions: in combination with Cpd. No. 15, seven days, DLBCL cell line DOHH2
JEKO1 = assay: as above; format: cell-based; conditions: in combination with Cpd. No. 15, seven days, mantle cell lymphoma cell line JEKO1 (CRL-3006)
SUDHL10 = assay: as above; conditions: in combination with Cpd. No. 15; 5-Day Cotreatment; DLBCL cell line SUDHL10
Pfeiffer = assay: as above; format: cell-based; conditions: in combination with Cpd. No. 15, seven days, DLBCL cell line Pfeiffer
WSUNHL = assay: as above; format: cell-based; conditions: in combination with Cpd. No. 15, seven days, DLBCL cell line WSUNHL
SUDHL8 = assay: as above; format: cell-based; conditions: in combination with Cpd. No. 15, seven days, DLBCL cell line SUDHL8
HT = assay: as above; format: cell-based; conditions: in combination with Cpd. No. 15, seven days, DLBCL cell line HT
DB = assay: as above; format: cell-based; conditions: in combination with Cpd. No. 15, seven days, DLBCL cell line DB

For CC[C@]1(O)C[C@H]2CN(CCc3c([nH]c4ccccc34)[C@@](C(=O)OC)(c3cc4c(cc3OC)N(C=O)[C@H]3[C@@](O)(C(=O)OC)[C@H](OC(C)=O)[C@]5(CC)C=CCN6CC[C@]43[C@@H]65)C2)C1 [Vincristine (O)], the “Combination effect with Cpd. No. 15 (Loewe Volume class), OCILY7” value [1] was “Additivity (between 1 and −1: additivity)”.

CC[C@]1(O)C[C@H]2CN(CCc3c([nH]c4ccccc34)[C@@](C(=O)OC)(c3cc4c(cc3OC)N(C=O)[C@H]3[C@@](O)(C(=O)OC)[C@H](OC(C)=O)[C@]5(CC)C=CCN6CC[C@]43[C@@H]65)C2)C1 [Vincristine, vincristine] was tested, and the “Combination effect (Loewe Volume) SUDHL5” value (SUDHL5) was “Synergy (VLoewe>1: synergy)”, the “Combination effect (Loewe Volume) SUDHL2” value (SUDHL2) was “Additivity (between 1 and −1: additivity)” and the “Combination effect (Loewe Volume) RL” value (RL) was “Synergy (VLoewe>1: synergy)”. The “Combination effect (Loewe Volume) KARPAS422” value (KARPAS422) was “Synergy (VLoewe>1: synergy)”, the “Combination effect (Loewe Volume) MINO” value (MINO) was “Additivity (between 1 and −1: additivity)” and the “Combination effect (Loewe Volume) Z138” value (Z138) was “Additivity (between 1 and −1: additivity)”. For the same compound, the “Combination effect with Cpd. No. 15 (Loewe Volume class), TMD8” value [2] was “Additivity (between 1 and −1: additivity)”, the “Combination effect (Loewe Volume) WILL2” value (WILL2) was “Additivity (between 1 and −1: additivity)” and the “Combination effect (Loewe Volume) MAVER1” value (MAVER1) was “Synergy (VLoewe>1: synergy)”. For the same compound, the “Combination effect (Loewe Volume) DOHH2” value (DOHH2) was “Synergy (VLoewe>1: synergy)” and the “Combination effect (Loewe Volume) JEKO1” value (JEKO1) was “Additivity (between 1 and −1: additivity)”.

oxaliplatin was tested, and the “Combination effect (Loewe Volume) SUDHL5” value (SUDHL5) was “Additivity (between 1 and −1: additivity)”, the “Combination effect (Loewe Volume) SUDHL10” value (SUDHL10) was “Additivity (between 1 and −1: additivity)” and the “Combination effect (Loewe Volume) Pfeiffer” value (Pfeiffer) was “Additivity (between 1 and −1: additivity)”. The “Combination effect (Loewe Volume) WSUNHL” value (WSUNHL) was “Synergy (VLoewe>1: synergy)”, the “Combination effect (Loewe Volume) SUDHL8” value (SUDHL8) was “Additivity (between 1 and −1: additivity)” and the “Combination effect (Loewe Volume) WILL2” value (WILL2) was “Additivity (between 1 and −1: additivity)”. The “Combination effect (Loewe Volume) HT” value (HT) was “Additivity (between 1 and −1: additivity)” and the “Combination effect (Loewe Volume) DB” value (DB) was “Additivity (between 1 and −1: additivity)”.
